Values of other authors, collected in patent US11208696B2, “Prognostic biomarkers for TTK inhibitor chemotherapy” (NETHERLANDS TRANSLATIONAL RESEARCH CENTER B.V., priority 2015, dated 2021).
pIC50: −log10 of the molar value.

Tested on: panel of 127 cancer cell lines
Settings: read-out: IC50s, inhibition of proliferation, close to 1 μM or higher; cited from earlier work

CCc1cccc(CC)c1NC(=O)c1nn(C)c2c1CCc1cnc(Nc3ccc(C(=O)NC4CCN(C)CC4)cc3OC(F)(F)F)nc1-2 [NMS-P715]
pIC50: ≤ 6.00
